Assay results taken from patent US8663703B2, “Drug microparticles, processes of preparing them and a drug delivery vehicle comprising them” (Teva Pharmaceutical Industries, Ltd., priority 2002, dated 2014).

Assay: Solubility of selected drugs in menthol melt
Assay type: physicochemical
Details: 70 °C

Cc1nc2n(c(=O)c1CCN1CCC(c3noc4cc(F)ccc34)CC1)CCCC2 [Risperidone]
Solubility in menthol: 8.3 % w/w
